# Laboratory results published in patent publication EP0754455A1, “PHARMACEUTICAL COMPOSITIONS BASED ON AMINOMETHYLINDOLES AND THEIR THERAPEUTICAL APPLICATION AS NEUROPROTECTORS IN PARKINSON AND ALZHEIMER DISEASES” (CONSEJO SUPERIOR INVESTIGACIONES CIENTIFICAS (CSIC), priority 1995, dated 1996).
# Protein sequences, listed by entry. Tags and fused reporters are not part of them.
# UniProt Q8BW75, whole entry: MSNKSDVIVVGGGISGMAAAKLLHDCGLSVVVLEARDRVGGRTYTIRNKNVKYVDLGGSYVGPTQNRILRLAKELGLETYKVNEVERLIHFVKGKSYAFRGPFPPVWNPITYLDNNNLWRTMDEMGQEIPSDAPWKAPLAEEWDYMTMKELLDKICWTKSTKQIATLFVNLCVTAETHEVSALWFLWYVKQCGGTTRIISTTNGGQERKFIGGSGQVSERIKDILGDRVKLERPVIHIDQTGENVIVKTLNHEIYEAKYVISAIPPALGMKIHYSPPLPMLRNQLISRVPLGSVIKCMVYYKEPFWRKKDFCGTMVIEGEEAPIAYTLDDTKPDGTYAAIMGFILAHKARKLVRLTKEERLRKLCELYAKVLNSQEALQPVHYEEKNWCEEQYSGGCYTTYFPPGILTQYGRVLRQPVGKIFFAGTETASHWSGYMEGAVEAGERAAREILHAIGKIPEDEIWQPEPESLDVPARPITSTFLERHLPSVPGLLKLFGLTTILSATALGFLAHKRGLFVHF
# Biological target: MAO-B (Mus musculus, UniProt Q8BW75)
# Test: Ex vivo inhibition of brain MAO-B after i.p. administration
# Conditions: mouse brain homogenate 2 hours after i.p., l-deprenyl 10 mg/Kg, tested compound 4 mg/Kg
compound,measurement,setting,value
"C#CCN(C)[C@H](C)Cc1ccccc1 [deprenyl, reference compound]",MAO-B ACTIVITY,control 303,15
same,MAO-B ACTIVITY (% of control),control = 100%,4.8%
